Consider 1 molecule from US20140017673A1, “METHOD FOR ENUMERATING EUKARYOTIC CELL MICRONUCLEI WITH AN EMPHASIS ON SIMULTANEOUSLY ACQUIRING CYTOTOXICITY AND MODE OF ACTION INFORMATION” (priority 2012, published 2014).

For the series, the system named is TK6 cells.

Regarding `COc1cc2c(c(OC)c1OC)-c1ccc(OC)c(=O)cc1[C@@H](NC(C)=O)CC2` [Colchicine], the “mode of genotoxic action from metaphase events, FIG. 3” value is “aneugenicity” and the “proportion of metaphase events relative to negative control (mitotic index), FIG. 3” value is “increased”.
